{
  "source": "patent US20100210668A1",
  "about": "“COMPOSITION AND METHOD FOR TREATMENT OR PREVENTION OF BENIGN PROSTATIC HYPERPLASIA AND LOWER URINARY TRACT SYMPTOMS” (DONG-A PHARM. CO., LTD., priority 2007, published 2010)",
  "tested_on": "health men",
  "test": "Safety Test 2: vital signs in supine position, Silodosin combination",
  "type": "in vivo, human",
  "experimental": "9 health men aged 19 to 50 years were divided into three groups according to randomization list, and administered by a) placebo and the pyrazolopyrimidinone of chemical formula (I) (Group A), b) placebo and Silodosin (Group B), and c) Silodosin and the pyrazolopyrimidinone of formula (I) (Group C) to evaluate the effect of the combinational administration of the pyrazolopyrimidinone of formula (I) and Silodosin on the safety.\nThe safety evaluation was performed by observing vital signs (diastolic blood pressure, pulse rate, body temperature), clinical laboratory testing, electrocardiogram, adverse reactions such as subjective symptom and objective symptom. In addition, the effect of drug-drug interaction on pharmacokinetics of the pyrazolopyrimidinone was observed.",
  "data": [
    {"compound": "C[C@H](Cc1cc2c(c(C(N)=O)c1)N(CCCO)CC2)NCCOc1ccccc1OCC(F)(F)F", "note": "[Silodosin, reference compound]", "values": [
      {"measurement": "Diastolic blood pressure mean", "value": 112.4}
    ]}
  ]
}
